System: Nostoc sensor

For `CCCCN(CCCC)CCCC`, the “correlation between concentration and change in yield (dose-response curves)” value (7.4, 248, and 642 mg/L TBA, FIG. 2) was “good correlation” and the “Fs (minimal fluorescence signal) change on exposure” value (agent vapor in air stream, 200 ml/min, relative humidity 85%, curves every 5 min) was “increased”.
